Antibody variant affinities, Ab-14 light chain, assay B

Target: peptide PDVDLGDISGINAS, taken from heptad repeat 2 (HR2) of SARS-CoV-2 spike.

Each scFv is VH, a (GGGGS)3 linker, VL, as in the parent Ab-14, and differs from it in the CDRs of the light chain only.
VH: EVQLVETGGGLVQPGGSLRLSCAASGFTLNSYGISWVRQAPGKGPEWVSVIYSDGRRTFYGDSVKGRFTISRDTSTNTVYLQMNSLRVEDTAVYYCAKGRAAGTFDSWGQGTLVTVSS
VL: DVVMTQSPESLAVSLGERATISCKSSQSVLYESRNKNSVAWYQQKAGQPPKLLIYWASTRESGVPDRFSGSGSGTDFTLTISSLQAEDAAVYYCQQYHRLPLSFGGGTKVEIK

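Phage display of a naive human antibody library on the peptide gave the parent. These sequences belong to a second round, designed from the earlier measurements on random variants of the parent. Group labels follow the data file (Ctrl: baseline library sampled from a position-specific scoring matrix, with some repeated check sequences; GP: Gaussian process model; GPLM: also part of the Gaussian process libraries; HC: hill climbing; Gen: genetic algorithm; Gibbs: Gibbs sampling; a sequence that several methods proposed may carry one label only). Affinity was read by AlphaSeq, a pooled yeast mating assay with surface-displayed partners. After mating in shaken culture at 30 °C for 16 h, diploids were selected and their barcode pairs sequenced. Scores were corrected for input abundance and mapped to Kd with protein pairs of known affinity run in the same pool. Mating was done six times.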

Substitutions are numbered in sequence along the VL above, starting at 1 (not Kabat).
This list holds designs with at most six substitutions.
Each Kd is an estimate from the mating assay, the geometric mean of the replicates in which the pair was seen; lower is stronger.
Where no diploid with the target was found in any replicate, the entry reads "nd": below detection, most likely a poor binder, though not proof of it.
The list is sorted by this average, lowest first, undetected variants last.
As a blank, each scFv also met three strains without target: over all light chain designs, 4% of these pairings were detected, typically at 430 nM and seldom below 38 nM. The control count says in how many pairings with the empty strains this scFv gave a signal.
The range of this assay differs from that of the first round, and the authors advise against merging the two.
In the paper, a design with two or fewer of six values counts as a poor binder.
The parent sequence was in this pool as ten entries: three were never detected, three once, and four in most replicates, with averages from 2.2 nM to 240 nM.

For S25Q Q27W Y31Q W56D [GP_HC], the assay gave 340 pM (6 of 6 replicates; controls 0 of 18). For S25L V29M L30G W56N [GP_Gen], the assay gave 480 pM (6 of 6 replicates; controls 0 of 18). The variant K24H S25L Q27D W56N S103M [GP_HC] showed 500 pM (6 of 6 replicates; controls 1 of 18). For K24S S25L W56M [GP_HC], the assay gave 540 pM (6 of 6 replicates; controls 0 of 18). With S25L S26Q W56N S62W [GP_Gen] the result was 570 pM (6 of 6 replicates; controls 0 of 18). With S25L S26P L30P W56Q [GP_Gen] the result was 670 pM (6 of 6 replicates; controls 0 of 18). With S25F S26Q S38N W56H S62D [GP_HC] the result was 680 pM (6 of 6 replicates; controls 0 of 18).

With S25M L30P K36L S38N W56D A57G [GP_Gibbs] the result was 680 pM (6 of 6 replicates; controls 4 of 18). For S25V S28E V29F W56D [GP_HC], the assay gave 740 pM (6 of 6 replicates; controls 2 of 18). With S25F S28E V29K W56S [GP_HC] the result was 830 pM (6 of 6 replicates; controls 1 of 18). The variant S25E Y31L S33W W56D [GP_HC] gave 840 pM (6 of 6 replicates; controls 0 of 18). The variant S25L Q27W V29E W56N T59Q [GP_Gen] gave 860 pM (6 of 6 replicates; controls 0 of 18). The variant S25L S26D V29T W56Q [GP_HC] showed 990 pM (6 of 6 replicates; controls 0 of 18). For S25L L30P W56N S62D [GP_Gen], the assay gave 1.2 nM (6 of 6 replicates; controls 1 of 18).

The variant S25V S28Q V29N W56N [GP_Gen] showed 1.3 nM (6 of 6 replicates; controls 2 of 18). With Y31M R34N W56E S58T [Ctrl] the result was 1.4 nM (6 of 6 replicates; controls 0 of 18). For Q27I V29Y R34E W56S T59Q [GP_HC], the assay gave 1.4 nM (6 of 6 replicates; controls 0 of 18). With S26E S28G W56G [GPLM_HC] the result was 1.5 nM (6 of 6 replicates; controls 0 of 18). The variant S25L L30P W56N S103M [GP_Gen] showed 1.5 nM (6 of 6 replicates; controls 2 of 18). The variant S25L S26A V29T K36Q [GP_HC] gave 1.6 nM (6 of 6 replicates; controls 1 of 18). For S25I V29D S33E R34F W56E [Ctrl], the assay gave 1.8 nM (6 of 6 replicates; controls 1 of 18).

For R34G W56E [GP_Gen], the assay gave 1.8 nM (6 of 6 replicates; controls 2 of 18). With S25V V29W Y31M W56E E61I [GP_HC] the result was 2.1 nM (6 of 6 replicates; controls 1 of 18). With S25L Q27T V29W S33K W56Q T59Q [GP_Gibbs] the result was 2.3 nM (6 of 6 replicates; controls 2 of 18). The variant S25L S26R V29T W56H [GP_HC] gave 2.4 nM (6 of 6 replicates; controls 0 of 18). The variant W56E A57G [Ctrl] showed 2.6 nM (6 of 6 replicates; controls 0 of 18). The variant S25V V29F W56G Q96E [GP_HC] showed 3.2 nM (6 of 6 replicates; controls 1 of 18). The variant S25L L30P W56H E61C [GP_Gen] showed 3.7 nM (6 of 6 replicates; controls 1 of 18).

The variant Q27K R34V W56G S58Y T59L S62D [Ctrl] showed 4.6 nM (6 of 6 replicates; controls 2 of 18). With K24Y S25L S26M W56H T59L S62D [GP_HC] the result was 5.7 nM (6 of 6 replicates; controls 0 of 18). The variant V29E R34T [Ctrl] showed 10 nM (6 of 6 replicates; controls 2 of 18). With V29L Y31D L102R S103I [Ctrl] the result was 10 nM (6 of 6 replicates; controls 0 of 18). The variant V29M R34Y [Ctrl] showed 26 nM (6 of 6 replicates; controls 0 of 18). The variant S33D R34G W56H T59V S62D S103M [GP_Gibbs] showed 36 nM (5 of 6 replicates; controls 0 of 18). The variant L30A Y31G V39L [Ctrl] gave 44 nM (6 of 6 replicates; controls 0 of 18).

The variant L102P [Ctrl] showed 98 nM (4 of 6 replicates; controls 0 of 18). With S25F V29T S103P [Ctrl] the result was 210 nM (3 of 6 replicates; controls 0 of 18). For N35Q [Ctrl], the assay gave 360 nM (3 of 6 replicates; controls 0 of 18). For L30A R34M K36I T59M [Ctrl], the assay gave 440 nM (2 of 6 replicates; controls 0 of 18). For S38A R60Q [Ctrl], the assay gave nd (0 of 6 replicates; controls 1 of 18). The variant S28Q N35C W56S [Ctrl] gave nd (0 of 6 replicates; controls 0 of 18). The variant S33D R34M N35L S103I [Ctrl] showed nd (0 of 6 replicates; controls 0 of 18).

For Y31R W56S L100N P101R S103K [Ctrl], the assay gave nd (0 of 6 replicates; controls 0 of 18).

Extract of 3 entries:

With L102P [Ctrl] the result was 98 nM (4 of 6 replicates; controls 0 of 18).
With S25V S28E V29F W56D [GP_HC] the result was 740 pM (6 of 6 replicates; controls 2 of 18).
With K24Y S25L S26M W56H T59L S62D [GP_HC] the result was 5.7 nM (6 of 6 replicates; controls 0 of 18).

Reference: Li et al. 2023, doi:10.1038/s41467-023-39022-2. File: FLAb, binding data.